In patent US6548042B2, “Bis-phosphonate compounds” (priority 2000, dated 2003):

Experiment: Biodistribution of i.v. administered radioiodinated compounds in balb/c mice;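 further: healthy mice given radioiodinated bisphosphonic acids, with randomly chosen groups of three animals per time point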

phosphonyl(M-[^125I]-iodobenzyl)Phosphoric Acid [31a]
Femur to soft tissue ratio (24 h, soft tissue with highest uptake): > 25
Uptake in the thyroid (24 h postinjection): 0.13±0.03 % of the injected dose
Uptake in femur (24 h postinjection, i.v.): 2.05±0.49 % ID/g
Uptake in kidneys (24 h postinjection, i.v.): 0.08±0.02 % ID/g
Uptake in skull (24 h postinjection, i.v.): 1.22±0.19 % ID/g
Discomfort or toxicity after administration of samples (single bolus tail vein injection, 100 μl): No sign of discomfort or toxicity was observed
